Sequences of proteins named here, by UniProt entry; tags and fusion partners are left off.
UniProt P07550, whole entry: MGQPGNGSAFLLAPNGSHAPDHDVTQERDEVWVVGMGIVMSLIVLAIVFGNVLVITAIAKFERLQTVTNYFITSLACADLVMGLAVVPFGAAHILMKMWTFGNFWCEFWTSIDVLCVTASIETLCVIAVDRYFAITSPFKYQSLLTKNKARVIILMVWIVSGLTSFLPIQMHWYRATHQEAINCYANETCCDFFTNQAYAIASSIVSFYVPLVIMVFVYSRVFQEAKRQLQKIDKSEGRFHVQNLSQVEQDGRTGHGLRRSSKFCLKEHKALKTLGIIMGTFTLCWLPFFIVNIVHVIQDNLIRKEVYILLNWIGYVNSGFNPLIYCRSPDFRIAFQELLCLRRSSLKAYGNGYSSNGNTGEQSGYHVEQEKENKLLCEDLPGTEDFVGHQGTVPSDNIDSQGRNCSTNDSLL

In ChEMBL document CHEMBL1143696, “Comparative molecular field analysis of the binding of the stereoisomers of fenoterol and fenoterol derivatives to the beta2 adrenergic receptor” (J Med Chem, 2007):

Biological target: Beta-2 adrenergic receptor (Homo sapiens, UniProt P07550)
Test: biochemical

First: CCCC[C@H](C)NC[C@@H](O)c1cc(O)cc(O)c1
Second: CCCC[C@H](C)NC[C@H](O)c1cc(O)cc(O)c1 (racemic)
The Ki of the first is 1.8-fold higher: 56.4 µM for the first, 31.4 µM for the second.

With `CCCC[C@@H](C)NC[C@H](O)c1cc(O)cc(O)c1` the Ki was 9.28 µM.
